Earlier results on one substance are cited in US20170247459A1, “COMBINATION THERAPY OF ANTIBODIES AGAINST HUMAN CSF-1R AND USES THEREOF” (HOFFMANN-LA ROCHE INC., priority 2012, published 2017).

Protein sequences, listed by entry. Tags and fused reporters are not part of them. Residues count along the entry.
UniProt P25942, 21-277: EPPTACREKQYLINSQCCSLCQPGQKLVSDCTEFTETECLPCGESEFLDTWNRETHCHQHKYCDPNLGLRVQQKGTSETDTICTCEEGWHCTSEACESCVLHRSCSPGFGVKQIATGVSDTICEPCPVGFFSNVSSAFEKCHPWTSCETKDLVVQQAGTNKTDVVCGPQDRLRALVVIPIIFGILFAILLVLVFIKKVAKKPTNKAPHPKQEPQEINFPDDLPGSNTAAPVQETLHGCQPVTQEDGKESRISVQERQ

For orientation: Kd means the free concentration of one partner at which half of the binding sites on the other are occupied at equilibrium, for simple one-to-one binding.

In this series the target is CD40 (Homo sapiens, UniProt P25942). As to conditions: cited from earlier work.

Consider “CP-870,893: fully human IgG2 CD40 agonist antibody developed by Pfizer, VH SEQ ID NO: 88, VL SEQ ID NO: 89”, for which the “blocking of binding of CD40L (in words)” value is listed as “does not block binding of CD40L”. Also, where the note is “read-out: KD (binds CD40)”, the Kd was 0.348 nM.
